In PubChem BioAssay AID1159583 (ICCB-Longwood Screening Facility, Harvard Medical School, 2016) one finds fluorescence inhibition data, which are given here for 22 compounds.

The entries are a selection whose mix differs from that of the whole data set. Some results for these compounds are left out of this collection, so the calls shown say nothing about other tests. Activity calls are given as the source filed them. No stated cut-off is given here; in the data, active means fluorescence inhibition mostly above about 23% (no sharp cut-off); inactive means mostly below about 17%.

This assay can be described thus: hypoxia reporter signal reduction in M. tuberculosis – fluorescence, absorbance growth readout, primary screen (AID 1159583). The conditions noted are these: M. tuberculosis hypoxia-regulated fluorescent reporter, stronger effect = higher value, concentration not given here.
Regarding `O=C(NCC1(N2CCCCC2)CCCCC1)c1cccc(Cl)c1`, the fluorescence inhibition is inactive: 3.05%.
Next, `COc1cccc(C(=O)NCC2(N3CCCCC3)CCCCC2)c1`: inactive: 8.44%.
Regarding `COc1ccc(Cl)cc1C(=O)NCC1(N(C)C)CCCCC1`, the fluorescence inhibition was inactive: 13.2%.
Take `COc1cc(C(=O)NCC2(N(C)C)CCCCC2)c([N+](=O)[O-])cc1OC`: the fluorescence inhibition was inactive: 16%.
`CN(C)C1(CNC(=O)c2ccc(Br)cc2)CCCCC1`: the fluorescence inhibition was inactive: 13%.
With `CC(C)Oc1ccc(C(=O)NCC2(N(C)C)CCCCC2)cc1`, the fluorescence inhibition was inactive: 16.1%.
With `O=C(OCCN1CCCC1)C(O)(c1ccccc1)c1ccccc1`, the fluorescence inhibition was inactive: 14%.
Regarding `COc1ccc(Br)c(C(=O)NCC2(N3CCCCC3)CCCCC2)c1`, the fluorescence inhibition is inactive: -3.3%.
For the compound `O=C(OC1CN2CCC1CC2)C(CO)(c1ccccc1)c1ccccc1` (configuration not stated), the fluorescence inhibition was inactive: 0.75%.
On to `Cc1ccc(C(=O)NCC2(N3CCCCC3)CCCCC2)cc1`, for which the fluorescence inhibition is inactive: -0.638%.
In the case of `COc1cc(SC)ccc1C(=O)NCC1(N(C)C)CCCCC1`, the fluorescence inhibition is inactive: -2.68%.
For the compound `CN1[C@@H]2CC[C@H]1CC(OC(=O)C(O)(c1ccccc1)c1ccccc1)C2` (some centres not stated), the fluorescence inhibition is inactive: -4.41%.
For `O=C(NCC1(N2CCCCC2)CCCCC1)c1cc([N+](=O)[O-])ccc1Cl`, the fluorescence inhibition is inactive: -2.51%.
On to `COc1ccc(C(=O)NCC2(N(C)C)CCCCC2)cc1`, for which the fluorescence inhibition was inactive: -0.25%.
With `CCN1CCCC(OC(=O)C2(O)c3ccccc3C=Cc3ccccc32)C1` (configuration not stated), the fluorescence inhibition is inactive: 15.2%.
Turning to `Cc1cc(C(=O)NCC2(N3CCCCC3)CCCCC2)ccc1[N+](=O)[O-]`, the fluorescence inhibition was inactive: 9.38%.
Turning to `O=C(NCC1(N2CCCCC2)CCCCC1)c1cccc(Br)c1`, the fluorescence inhibition was inactive: 2.15%.
In the case of `O=C(NCC1(N2CCCCC2)CCCCC1)c1cc(F)c(F)cc1Cl`, the fluorescence inhibition was inactive: 6.04%.
Next, `CN(C)CCOC(=O)C(O)(c1ccccc1)C1CCCCC1` (configuration not stated): inactive: -7.92%.
For `Cc1ccccc1C(=O)NCC1(N2CCCCC2)CCCCC1`, the fluorescence inhibition was inactive: -7.51%.
Next, `CN(C)c1ccc(C(=O)NCC2(N(C)C)CCCCC2)cc1`: inactive: 15%; `CN(C)C1CCCC1OC(=O)C(O)(c1ccccc1)c1ccccc1` (configuration not stated): inactive: 4.02%.
